Experimental data reported in patent US6846802B2, “Macrocyclic NS3-serine protease inhibitors of hepatitis C virus comprising N-cyclic P2 moieties” (priority 2000, dated 2005).

Chains of the proteins cited; added tags and fusions are not shown. Residues count along the entry.
UniProt P27958, 1027-1657: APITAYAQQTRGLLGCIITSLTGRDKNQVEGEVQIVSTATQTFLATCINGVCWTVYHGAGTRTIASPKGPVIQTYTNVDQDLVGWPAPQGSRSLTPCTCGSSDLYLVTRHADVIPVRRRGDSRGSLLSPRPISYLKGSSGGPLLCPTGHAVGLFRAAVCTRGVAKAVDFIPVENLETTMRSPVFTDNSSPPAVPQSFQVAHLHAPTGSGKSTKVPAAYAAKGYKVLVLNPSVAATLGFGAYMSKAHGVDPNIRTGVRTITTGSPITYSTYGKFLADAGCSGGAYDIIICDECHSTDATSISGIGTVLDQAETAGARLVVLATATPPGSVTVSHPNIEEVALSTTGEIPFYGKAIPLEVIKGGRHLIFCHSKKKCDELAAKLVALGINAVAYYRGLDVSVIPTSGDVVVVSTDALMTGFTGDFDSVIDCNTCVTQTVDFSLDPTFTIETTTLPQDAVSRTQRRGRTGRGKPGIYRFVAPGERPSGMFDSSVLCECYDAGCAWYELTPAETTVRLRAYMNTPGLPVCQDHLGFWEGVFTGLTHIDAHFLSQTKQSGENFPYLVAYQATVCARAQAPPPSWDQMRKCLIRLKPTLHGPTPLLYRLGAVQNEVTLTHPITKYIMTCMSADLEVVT
UniProt P27958, 1658-1711: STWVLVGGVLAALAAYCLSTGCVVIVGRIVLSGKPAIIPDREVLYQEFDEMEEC

Target: Recombinant heterodimeric HCV NS3/NS4A protease (strain 1a) (Hepatitis C virus genotype 1a, UniProt P27958)
Assay: biochemical

Compound	Ki [µM]
CCC[C@H](NC(=O)[C@@H]1C[C@@H]2CN1C(=O)[C@H](C1CCCCC1)NC(=O)Cc1cc(C)cc(c1)OCCCO2)C(=O)C(=O)NCC(=O)N[C@H](C(=O)N(C)C)c1ccccc1 [Compound 74B]	0.001 to 0.1
CCC[C@@H](NC(=O)[C@@H]1C[C@@H]2CN1C(=O)[C@H](C1CCCCC1)NC(=O)Cc1ccc(C)c(c1)OCCCO2)C(=O)C(=O)NCC(=O)N[C@H](C(=O)N(C)C)c1ccccc1 [Compound 75A]	0.101 to 100
CCC[C@H](NC(=O)[C@@H]1C[C@@H]2CN1C(=O)[C@H](C1CCCCC1)NC(=O)Cc1ccc(C)c(c1)OCCCO2)C(=O)C(=O)NCC(=O)N[C@H](C(=O)N(C)C)c1ccccc1 [Compound 75B]	0.001 to 0.1
CCCCC(NC(=O)[C@@H]1[C@H]2OC3CCCOc4cccc(c4)CC(=O)N[C@@H](C4CCCCC4)C(=O)N1C[C@@H]2O3)C(=O)C(=O)NCC(=O)N[C@H](C(=O)N(C)C)c1ccccc1 (stereo partly drawn) [Compound 76]	0.001 to 0.1
CCCC(NC(=O)[C@@H]1C[C@@H]2CN1C(=O)[C@H](C1CCCCC1)NC(=O)Cc1cccc(c1)OCCC(C)(C)O2)C(=O)C(=O)NCC(=O)NCc1ccccc1 (stereo partly drawn) [Compound 79]	0.101 to 100
CCCC(NC(=O)[C@@H]1C[C@@H]2CN1C(=O)[C@H](C1CCCCC1)NC(=O)Cc1cccc(c1)OCCC(C)(C)O2)C(=O)C(=O)NCC(=O)O (stereo partly drawn) [Compound 81]	0.101 to 100
C=CCNC(=O)C(=O)C(CCC)NC(=O)[C@@H]1C[C@@H]2CN1C(=O)[C@H](C1CCCCC1)NC(=O)Cc1cccc(c1)OCCC(C)(C)O2 (stereo partly drawn) [Compound 82]	0.101 to 100
CCCCC(NC(=O)[C@@H]1C[C@@H]2CN1C(=O)[C@H](C1CCCCC1)NC(=O)Cc1cccc(c1)OCCC(C)(C)O2)C(=O)C(=O)NCC(=O)N[C@H](C(=O)N(C)C)c1ccccc1 (stereo partly drawn) [Compound 83]	0.001 to 0.1
C=CCNC(=O)C(=O)C(CCCC)NC(=O)[C@@H]1C[C@@H]2CN1C(=O)[C@H](C1CCCCC1)NC(=O)Cc1cccc(c1)OCCC(C)(C)O2 (stereo partly drawn) [Compound 84]	0.101 to 100
CCCCC(NC(=O)[C@@H]1C[C@@H]2CN1C(=O)[C@H](C1CCCCC1)NC(=O)Cc1cccc(c1)OCCC(C)(C)O2)C(=O)C(N)=O (stereo partly drawn) [Compound 85]	0.101 to 100
C=CCCC(NC(=O)[C@@H]1C[C@@H]2CN1C(=O)[C@H](C1CCCCC1)NC(=O)Cc1cccc(c1)OCCC(C)(C)O2)C(=O)C(=O)NCC=C (stereo partly drawn) [Compound 86]	0.101 to 100
C=CCCC(NC(=O)[C@@H]1C[C@@H]2CN1C(=O)[C@H](C1CCCCC1)NC(=O)Cc1cccc(c1)OCCC(C)(C)O2)C(=O)C(N)=O (stereo partly drawn) [Compound 87]	0.101 to 100
CC1(C)CCOc2cccc(c2)CC(=O)N[C@@H](C2CCCCC2)C(=O)N2C[C@@H](C[C@H]2C(=O)NC(CC2CC2)C(=O)C(N)=O)O1 (stereo partly drawn) [Compound 88]	0.101 to 100
C=CCNC(=O)C(=O)C(CC=C)NC(=O)[C@@H]1C[C@@H]2CN1C(=O)[C@H](C1CCCCC1)NC(=O)Cc1cccc(c1)OCCC(C)(C)O2 (stereo partly drawn) [Compound 89]	0.101 to 100
C=CCC(NC(=O)[C@@H]1C[C@@H]2CN1C(=O)[C@H](C1CCCCC1)NC(=O)Cc1cccc(c1)OCCC(C)(C)O2)C(=O)C(=O)NCCC(=O)OC(C)(C)C (stereo partly drawn) [Compound 90]	0.101 to 100
CCCC(NC(=O)[C@@H]1C[C@@H]2CN1C(=O)[C@H](C1CCCCC1)NC(=O)Cc1cccc(c1)OCCC(C)(C)O2)C(=O)C(=O)NCCC(=O)OC(C)(C)C (stereo partly drawn) [Compound 91]	0.101 to 100
CCCC(NC(=O)[C@@H]1C[C@@H]2CN1C(=O)[C@H](C(C)(C)C)NC(=O)Cc1cccc(c1)OCCC(C)(C)O2)C(=O)C(=O)NCC(=O)N[C@H](C(=O)N(C)C)c1ccccc1 (stereo partly drawn) [Compound 92]	0.001 to 0.1
C=CCNC(=O)C(=O)C(CCC)NC(=O)[C@@H]1C[C@@H]2CN1C(=O)[C@H](C(C)(C)C)NC(=O)Cc1cccc(c1)OCCC(C)(C)O2 (stereo partly drawn) [Compound 93]	0.101 to 100

Compound	Ki [µM]
CCCC(NC(=O)[C@@H]1C[C@@H]2CN1C(=O)[C@H](C(C)(C)C)NC(=O)Cc1cccc(c1)OCCC(C)(C)O2)C(=O)C(N)=O (stereo partly drawn) [Compound 94]	0.101 to 100
CCCC(NC(=O)[C@@H]1C[C@@H]2CN1C(=O)[C@H](C(C)C)NC(=O)Cc1cccc(c1)OCCC(C)(C)O2)C(=O)C(=O)NCC(=O)N[C@H](C(=O)N(C)C)c1ccccc1 (stereo partly drawn) [Compound 95]	0.001 to 0.1
C=CCNC(=O)C(=O)C(CCC)NC(=O)[C@@H]1C[C@@H]2CN1C(=O)[C@H](C(C)C)NC(=O)Cc1cccc(c1)OCCC(C)(C)O2 (stereo partly drawn) [Compound 96]	0.101 to 100
CCCC(NC(=O)[C@@H]1C[C@@H]2CN1C(=O)[C@H](C(C)C)NC(=O)Cc1cccc(c1)OCCC(C)(C)O2)C(=O)C(N)=O (stereo partly drawn) [Compound 97]	0.101 to 100
CCCC(NC(=O)[C@@H]1C[C@@H]2CN1C(=O)[C@H](c1ccccc1)NC(=O)Cc1cccc(c1)OCCC(C)(C)O2)C(=O)C(=O)NCC(=O)N[C@H](C(=O)N(C)C)c1ccccc1 (stereo partly drawn) [Compound 98]	0.001 to 0.1
C=CCNC(=O)C(=O)C(CCC)NC(=O)[C@@H]1C[C@@H]2CN1C(=O)[C@H](c1ccccc1)NC(=O)Cc1cccc(c1)OCCC(C)(C)O2 (stereo partly drawn) [Compound 99]	0.101 to 100
CCCC(NC(=O)[C@@H]1C[C@@H]2CN1C(=O)[C@H](c1ccccc1)NC(=O)Cc1cccc(c1)OCCC(C)(C)O2)C(=O)C(N)=O (stereo partly drawn) [Compound 100]	0.101 to 100
CCCC(NC(=O)[C@@H]1C[C@@H]2CN1C(=O)[C@H](C(C)CC)NC(=O)Cc1cccc(c1)OCCC(C)(C)O2)C(=O)C(=O)NCC(=O)N[C@H](C(=O)N(C)C)c1ccccc1 (stereo partly drawn) [Compound 101]	0.001 to 0.1
C=CCNC(=O)C(=O)C(CCC)NC(=O)[C@@H]1C[C@@H]2CN1C(=O)[C@H](C(C)CC)NC(=O)Cc1cccc(c1)OCCC(C)(C)O2 (stereo partly drawn) [Compound 102]	0.101 to 100
CCCC(NC(=O)[C@@H]1C[C@@H]2CN1C(=O)[C@H](C(C)CC)NC(=O)Cc1cccc(c1)OCCC(C)(C)O2)C(=O)C(N)=O (stereo partly drawn) [Compound 103]	0.101 to 100
C=CCNC(=O)C(=O)C(CCC)NC(=O)[C@@H]1C[C@@H]2CN1C(=O)[C@H](C1CCCC1)NC(=O)Cc1cccc(c1)OCCC(C)(C)O2 (stereo partly drawn) [Compound 104]	0.101 to 100
CCCC(NC(=O)[C@@H]1C[C@@H]2CN1C(=O)[C@H](C1CCCC1)NC(=O)Cc1cccc(c1)OCCC(C)(C)O2)C(=O)C(N)=O (stereo partly drawn) [Compound 105]	0.101 to 100
C=CCNC(=O)C(=O)C(CCC)NC(=O)C1C[C@@H]2CN1C(=O)[C@H](C1CCCCC1)NC(=O)Cc1cccc(c1)OCCCC(C)(C)O2 (stereo partly drawn) [Compound 106]	0.101 to 100
CCCC(NC(=O)[C@@H]1C[C@@H]2CN1C(=O)[C@H](C1CCCCC1)NC(=O)Cc1cccc(c1)OCCCC(C)(C)O2)C(=O)C(N)=O (stereo partly drawn) [Compound 107]	0.101 to 100
C=CCCC(NC(=O)[C@@H]1C[C@@H]2CN1C(=O)[C@H](C1CCCCC1)NC(=O)Cc1cccc(c1)OCCCC(C)(C)O2)C(=O)C(=O)NCC=C (stereo partly drawn) [Compound 108]	0.101 to 100
CC1(C)CCCOc2cccc(c2)CC(=O)N[C@@H](C2CCCCC2)C(=O)N2C[C@@H](C[C@H]2C(=O)NC(CC2CC2)C(=O)C(N)=O)O1 (stereo partly drawn) [Compound 109]	0.101 to 100
CCCC(NC(=O)[C@@H]1[C@@H]2CCN1C(=O)[C@H](C(C)(C)C)NC(=O)Cc1cccc(c1)OCCCO2)C(=O)C(=O)NCC(=O)N[C@H](C(=O)N(C)C)c1ccccc1 (stereo partly drawn) [Compound 110]	0.001 to 0.1
CCCC(NC(=O)[C@@H]1[C@@H]2CCN1C(=O)[C@H](C(C)(C)C)NC(=O)Cc1cccc(c1)OCCCCO2)C(=O)C(=O)NCC(=O)N[C@H](C(=O)N(C)C)c1ccccc1 (stereo partly drawn) [Compound 111]	0.001 to 0.1
